# AlphaSeq binding of Ab-95 light chain variants to a spike HR2 peptide

Data: MIT Lincoln Laboratory AlphaSeq set, Engelhart et al. 2022, doi:10.1038/s41597-022-01779-4, as distributed in FLAb.

Target: peptide PDVDLGDISGINAS, taken from heptad repeat 2 (HR2) of SARS-CoV-2 spike.

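The parent was found by panning a naive human phage display library on the peptide. Library AAYL52 holds single substitutions and randomly drawn double and triple substitutions in the CDRs. The assay is AlphaSeq: two haploid yeast populations carry antibody and antigen on their surface. After mating in shaken culture at 30 °C for 16 h, diploids were selected and their barcode pairs sequenced. Read counts were normalised to the haploid input and turned into Kd by a linear fit to BCL2-family pairs of known affinity, for each replicate. The assay was run in three technical replicates.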

Parent: Ab-95, a human scFv built as VH, a (GGGGS)3 linker, VL. Only the CDRs of the light chain vary.
VH: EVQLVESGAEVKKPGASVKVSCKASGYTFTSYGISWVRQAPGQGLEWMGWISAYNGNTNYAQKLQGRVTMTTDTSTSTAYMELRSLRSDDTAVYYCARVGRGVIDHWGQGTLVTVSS
VL: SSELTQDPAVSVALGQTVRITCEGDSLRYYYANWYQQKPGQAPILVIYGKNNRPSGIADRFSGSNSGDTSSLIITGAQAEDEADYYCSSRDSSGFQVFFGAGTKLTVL

Each variant is given by its three light chain CDRs, as the data file delimits them; those of the parent are EGDSLRYYYAN, GKNNRPS, SSRDSSGFQVF. The read-out is the apparent dissociation constant on a log10 scale (nM): the lower, the stronger. Averages over replicates are reported, and they cover detected replicates only. "nd" marks a missing value. The strain was present, yet no cells mated with the target were sequenced in that replicate, which points to weak or no binding. Nonspecific signal, from three strains lacking the peptide, appeared in 28% of pairings of library AAYL52, centred on 3.91 (5% of these signals below 2.90); values are not corrected for it. For each scFv, signals with the empty controls are counted beside the result, with their mean in brackets. In this assay the parent's reference entry averaged 2.31; its copy inside this library read 2.25.

CDR-L1	CDR-L2	CDR-L3	log10 Kd (nM) by replicate	log10 Kd (nM), mean	empty controls
EGDSLWYYYAN	GKNNRPV	SSRDSSNFQVF	nd 4.35 4.03	4.19	1/9 (4.81)
EGDSDRYYYAN	GKNNRPS	SSRDTSGFQVF	3.81 nd nd	3.81	0/9
EGDSLRYYYAE	GKNNQPS	SSRVSSGFQVF	3.96 nd nd	3.96	1/9 (3.95)
EVGSARYYYAN	GKNNRPS	SSRDSSGFQVF	2.44 2.36 3.39	2.73	1/9 (4.80)
EGDSLRYYYAN	GKNNRPS	SIRDSSGWQVT	3.91 2.85 3.55	3.43	2/9 (3.37)
EGDSLRYYYAN	PKNNRHS	SSRDSSGFQVI	4.85 3.51 nd	4.18	4/9 (4.06)
EGDSLRYNNAN	GKNNRFS	SSRDSSGFQVF	0.82 0.86 0.28	0.65	5/9 (4.59)
EGDSLRYYYAN	GKNNRDS	SSWDSSCFQVF	nd 4.07 nd	4.07	1/9 (4.48)
EGDSLRYYGAC	GKNNRPS	SSRDSCGFQVF	nd 4.00 3.68	3.84	2/9 (3.32)
EGDSLKYYYFN	GKNNRCS	SSRDSSGFQVF	3.77 5.73 4.25	4.58	3/9 (3.93)
EFDSLRYYYAN	GKNNRPS	SSVDSSGFQVF	3.10 3.92 4.10	3.71	5/9 (3.39)
EGDSLPYYYAN	GKNMRDS	SSRDSSGFQVF	nd nd nd	nd	4/9 (3.66)
EGCSLRYYYAS	GKNNRPS	SARDSSGFQVF	5.29 3.62 nd	4.46	5/9 (4.18)
EGDSLRYYYAN	GKNNWPS	SSRDLSGFQVF	nd nd nd	nd	2/9 (3.78)
EGDSLRYYYAN	GKNNRPS	SSRDWSGVQVF	3.32 2.93 3.62	3.29	4/9 (3.61)
EGDSLRYYYAN	GKNNRAT	SSRDSRGFQVF	2.51 2.29 2.33	2.38	1/9 (3.31)
NGDSLRYYYAN	GKNNRPQ	SSRSSSGFQVF	1.99 2.04 2.16	2.06	4/9 (4.51)
EGDSDRYYFAN	GKNNRPS	RSRDSSGFQVF	5.75 nd nd	5.75	1/9 (3.86)
EGGSLRYYYAN	GKNNRPS	PSRDSSGFQVF	2.93 nd 2.47	2.70	1/9 (3.20)
EGDSLRYYYAN	THNNRPS	SSRDSSGFQSF	nd 4.78 4.06	4.42	1/9 (4.50)
EGDSLRYYYAN	GKINNPS	SSRDSSGFQVK	nd nd nd	nd	3/9 (3.66)
EGDSLRYIYAN	GKNNRPL	SSRDSSQFQVF	5.57 nd nd	5.57	1/9 (4.28)
EGDSARYYYAN	GKNNRPS	SSRDFSGFQMF	3.54 4.70 3.76	4.00	2/9 (4.00)
EGDSLRYEYAN	GKNNRPS	SSRGSSGFQVF	1.99 2.08 1.54	1.87	2/9 (4.87)
EGDSLRAYYAN	GKNNFTS	SSRDSSGFQVF	3.77 nd 4.13	3.95	3/9 (4.05)
EGDSLRYYYAN	KKNNRPS	SSEDSSGFQVW	2.63 nd 3.81	3.22	1/9 (3.66)
EGDSERYYYAK	GKNNEPS	SSRDSSGFQVF	3.67 5.30 nd	4.48	2/9 (4.68)
EADSLRYYYAN	GKNNRPS	SSRDSYGFQWF	3.16 4.23 3.81	3.73	6/9 (4.27)
EGDSLRYCYQN	IKNNRPS	SSRDSSGFQVF	3.56 3.79 nd	3.68	4/9 (3.67)
EGDSLRYYKAN	GENNRPS	SSRVSSGFQVF	1.76 1.36 0.80	1.31	5/9 (3.76)
EGDSLRYLYAN	GKNNRFS	SSRDSSGDQVF	3.07 3.07 3.17	3.10	6/9 (3.63)
EFDSPRYYYAN	GKNNRPS	SSRDSSGFPVF	nd nd nd	nd	1/9 (3.57)
DGDSLRYYYAN	GKNNRCM	SSRDSSGFQVF	3.80 2.83 2.76	3.13	2/9 (4.31)
EGDSLRYDKAM	GKNNRPS	SSRDSSGFQVF	2.43 2.45 1.84	2.24	1/9 (3.49)
EGDSLRYAYAN	GKRNRPM	SSRDSSGFQVF	2.10 2.41 2.02	2.18	4/9 (3.86)
EGDMLRTYYAN	GKNNRPS	KSRDSSGFQVF	4.58 nd nd	4.58	1/9 (3.26)
EGDSLRYYYAN	GKNYRPS	SSRPSSGFQGF	4.36 nd 1.27	2.81	4/9 (3.19)
EGDSLRYYYKR	GKNNRPS	SSRDHSGFQVF	nd nd nd	nd	2/9 (3.99)
EGDSLMYYYAH	QKNNRPS	SSRDSSGFQVF	nd 4.60 nd	4.60	3/9 (4.38)
GGDSLRYYYAN	GKNNLPS	ESRDSSGFQVF	3.40 3.51 3.44	3.45	2/9 (3.70)

For reference, 7 entries of the list once more:

CDR-L1	CDR-L2	CDR-L3	log10 Kd (nM) by replicate	log10 Kd (nM), mean	empty controls
NGDSLRYYYAN	GKNNRPQ	SSRSSSGFQVF	1.99 2.04 2.16	2.06	4/9 (4.51)
EGDSLRYLYAN	GKNNRFS	SSRDSSGDQVF	3.07 3.07 3.17	3.10	6/9 (3.63)
EGDSLRYYYAN	KKNNRPS	SSEDSSGFQVW	2.63 nd 3.81	3.22	1/9 (3.66)
EGDSLRYIYAN	GKNNRPL	SSRDSSQFQVF	5.57 nd nd	5.57	1/9 (4.28)
EGDSERYYYAK	GKNNEPS	SSRDSSGFQVF	3.67 5.30 nd	4.48	2/9 (4.68)
EGDSLRYYYAN	PKNNRHS	SSRDSSGFQVI	4.85 3.51 nd	4.18	4/9 (4.06)
EFDSLRYYYAN	GKNNRPS	SSVDSSGFQVF	3.10 3.92 4.10	3.71	5/9 (3.39)